Where a name gives a salt, the structure may show the parent alone.
The compounds below were run against Human recombinant monoamine oxidase MAO-A (Homo sapiens (Human), UniProt P21397) (assay: Monoamine oxidase assay (kynuramine to 4-hydroxyquinoline fluorescence), MAO-A). Conditions: read-out: MAO-A (IC50-μM); Table 2.
Format: biochemical

Protein sequences, listed by entry. Tags and fused reporters are not part of them.
UniProt P21397, whole entry: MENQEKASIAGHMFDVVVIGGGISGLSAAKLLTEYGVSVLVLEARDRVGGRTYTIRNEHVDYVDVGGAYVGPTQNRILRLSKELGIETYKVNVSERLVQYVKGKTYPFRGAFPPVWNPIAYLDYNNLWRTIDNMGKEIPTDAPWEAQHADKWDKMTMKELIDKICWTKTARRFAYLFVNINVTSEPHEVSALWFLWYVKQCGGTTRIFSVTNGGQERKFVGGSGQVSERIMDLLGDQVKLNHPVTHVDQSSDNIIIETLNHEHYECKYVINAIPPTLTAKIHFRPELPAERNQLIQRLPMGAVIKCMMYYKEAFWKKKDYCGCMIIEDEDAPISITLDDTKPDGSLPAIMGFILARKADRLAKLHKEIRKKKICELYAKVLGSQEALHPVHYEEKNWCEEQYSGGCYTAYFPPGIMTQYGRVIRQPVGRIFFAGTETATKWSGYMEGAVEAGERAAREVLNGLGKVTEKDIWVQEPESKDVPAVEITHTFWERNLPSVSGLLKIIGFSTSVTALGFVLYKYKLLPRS
UniProt P27338, whole entry: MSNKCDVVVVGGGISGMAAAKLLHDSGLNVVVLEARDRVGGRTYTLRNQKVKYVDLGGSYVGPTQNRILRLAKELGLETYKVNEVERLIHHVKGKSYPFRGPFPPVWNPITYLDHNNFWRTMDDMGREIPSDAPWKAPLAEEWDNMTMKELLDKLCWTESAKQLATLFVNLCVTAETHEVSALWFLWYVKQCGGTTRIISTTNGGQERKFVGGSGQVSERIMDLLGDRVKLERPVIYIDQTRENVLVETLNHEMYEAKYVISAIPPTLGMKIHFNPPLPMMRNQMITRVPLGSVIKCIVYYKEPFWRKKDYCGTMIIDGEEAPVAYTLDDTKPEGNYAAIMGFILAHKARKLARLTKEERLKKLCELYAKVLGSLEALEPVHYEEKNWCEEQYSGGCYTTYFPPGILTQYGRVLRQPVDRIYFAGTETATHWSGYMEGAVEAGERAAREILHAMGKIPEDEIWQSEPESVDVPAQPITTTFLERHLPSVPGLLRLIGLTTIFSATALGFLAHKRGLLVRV

IC50 [µM]	SMILES
32	OC1CCC(N[C@H]2C[C@@H]2c2ccc(-c3cccc(C(F)(F)F)c3)nc2)CC1 (relative stereo) [Example 11, 4-(((trans)-2-(6-(3-(trifluoromethyl)phenyl)pyridin-3-yl)cyclopropyl)amino)cyclohexanol]
> 100	NC1CCC(N[C@H]2C[C@@H]2c2ccc(-c3cccc(C(F)(F)F)c3)nc2)CC1 (relative stereo) [Example 8, N1-((trans)-2-(6-(3-(trifluoromethyl)phenyl)pyridin-3-yl)cyclopropyl)cyclohexane-1,4-diamine hydrochloride]
29.5	NC1CCC(N[C@H]2C[C@@H]2c2cnc(-c3cccc(O)c3)s2)CC1 (relative stereo) [Example 45, 3-(5-((trans)-2-((4-aminocyclohexyl)amino)cyclopropyl)thiazol-2-yl)phenol]
10.7	N[C@H]1CC[C@@H](N[C@H]2C[C@@H]2c2ccc(-c3cccc(C(F)(F)F)c3)cc2)CC1 [Example 36, (Cis)-N1-((1S,2R)-2-(3′-(trifluoromethyl)-[1,1′-biphenyl]-4-yl)cyclopropyl)cyclohexane-1,4-diamine]
> 100	NC1CCC(N[C@H]2C[C@@H]2c2ccc(C3CC3)cc2)CC1 (relative stereo) [Example 40, N1-((trans)-2-(4-cylopropylphenyl)cyclopropyl)cyclohexane-1,4-diamine]
14.6	N[C@H]1CC[C@H](N[C@H]2C[C@@H]2c2ccc(-c3cccc(C(F)(F)F)c3)cc2)CC1 [Example 37, (Trans)-N1-((1S,2R)-2-(3′-(trifluoromethyl)-[1,1′-biphenyl]-4-yl)cyclo-propyl)cyclohexane-1,4-diamine]
> 100	NC1CC(N[C@H]2C[C@@H]2c2ccccc2)c2ccccc21 (relative stereo) [Example 20, N1-((trans)-2-phenylcyclopropyl)-2,3-dihydro-1H-indene-1,3-diamine]
25.2	NC(=O)C1CCC(N[C@H]2C[C@@H]2c2ccc(-c3cccc(C(F)(F)F)c3)nc2)CC1 (relative stereo) [Example 12, 4-(((trans)-2-(6-(3-(trifluoromethyl)phenyl)pyridin-3-yl)cyclopropyl)amino)cyclohexanecarboxamide hydrochloride]
26.3	N[C@H]1CC[C@H](N[C@@H]2C[C@H]2c2ccc(-c3cccc(C(F)(F)F)c3)cc2)CC1 [Example 39, (Trans)-N1-((1R,2S)-2-(3′-(trifluoromethyl)-[1,1′-biphenyl]-4-yl)cyclo-propyl)cyclohexane-1,4-diamine]
> 100	COc1ccc(C2CC2NC2CCC(N)CC2)cc1 (centres unmarked) [Example 29, N1-(2-(4-methoxyphenyl)cyclopropyl)cyclohexane-1,4-diamine]
~50	NC1CCC(N[C@H]2C[C@@H]2c2ccc(-c3cccc(C(F)(F)F)c3)cc2)CC1 (relative stereo) [Example 9, N1-((trans)-2-(3′-(trifluoromethyl)-[1,1′-biphenyl]-4-yl)cyclopropyl)cyclohexane-1,4-diamine hydrochloride]
26.8	N[C@H]1CC[C@@H](N[C@@H]2C[C@H]2c2ccc(-c3cccc(C(F)(F)F)c3)cc2)CC1 [Example 38, (Cis)-N1-((1R,2S)-2-(3′-(trifluoromethyl)-[1,1′-biphenyl]-4-yl)cyclo-propyl)cyclohexane-1,4-diamine]
> 100	NC1CCC(NC2CC2c2ccc(O)cc2)CC1 (centres unmarked) [Example 30, 4-(2-((4-aminocyclohexyl)amino)cyclopropyl)phenol]
1.64	NC1CCC(N[C@H]2C[C@@H]2c2ccc(OCc3ccccc3)cc2)CC1 (relative stereo) [Example 10, N1-((trans)-2-(4-(benzyloxy)phenyl)cyclopropyl)cyclohexane-1,4-diamine hydrochloride]

SMILES	IC50 [µM]
N[C@@H]1CCN(C2CCC(N[C@H]3C[C@@H]3c3ccccc3)CC2)C1 (stereo in doubt) [Example 15, (R)-1-(4-(((trans)-2-phenylcyclopropyl)amino)cyclohexyl)pyrrolidin-3-amine trihydrochloride]	> 100

The compounds below were run against Human recombinant monoamine oxidase MAO-B (Homo sapiens (Human), UniProt P27338) (assay: Monoamine oxidase assay (kynuramine to 4-hydroxyquinoline fluorescence), MAO-B). Conditions: read-out: MAO-B (IC50-μM); Table 2.
Format: biochemical

IC50 [µM]	SMILES
6.8	OC1CCC(N[C@H]2C[C@@H]2c2ccc(-c3cccc(C(F)(F)F)c3)nc2)CC1 (relative stereo) [Example 11, 4-(((trans)-2-(6-(3-(trifluoromethyl)phenyl)pyridin-3-yl)cyclopropyl)amino)cyclohexanol]
> 100	NC1CCC(NC2CC2c2ccc(F)c(F)c2)CC1 (centres unmarked) [Example 32, N1-(2-(3,4-difluorophenyl)cyclopropyl)cyclohexane-1,4-diamine]
10.1	NC1CCC(N[C@H]2C[C@@H]2c2ccc(-c3cccc(C(F)(F)F)c3)nc2)CC1 (relative stereo) [Example 8, N1-((trans)-2-(6-(3-(trifluoromethyl)phenyl)pyridin-3-yl)cyclopropyl)cyclohexane-1,4-diamine hydrochloride]
> 100	NC1CCCC(N[C@H]2C[C@@H]2c2ccccc2)C1 (relative stereo) [Example 18, N1-((trans)-2-phenylcyclopropyl)cyclohexane-1,3-diamine]
2.04	NC1CCC(N[C@H]2C[C@@H]2c2ccc(-c3cccc(O)c3)s2)CC1 (relative stereo) [Example 44, 3-(5-((trans)-2-((4-aminocyclohexyl)amino)cyclopropyl)thiophen-2-yl)phenol]
46.4	CC(C)(C)OC(=O)NC1CCC(N[C@H]2C[C@@H]2c2ccccc2)CC1 (relative stereo) [Example 23, Tert-butyl (4-(((trans)-2-phenylcyclopropyl)amino)cyclohexyl) carbamate]
2.5	NC(=O)C1CCC(N[C@H]2C[C@@H]2c2ccc(-c3cccc(C(F)(F)F)c3)nc2)CC1 (relative stereo) [Example 12, 4-(((trans)-2-(6-(3-(trifluoromethyl)phenyl)pyridin-3-yl)cyclopropyl)amino)cyclohexanecarboxamide hydrochloride]
2.45	CC(=O)NC1CCC(N[C@H]2C[C@@H]2c2ccc(-c3cccc(C(F)(F)F)c3)nc2)CC1 (relative stereo) [Example 13, N-(4-(((trans)-2-(6-(3-(trifluoromethyl)phenyl)pyridin-3-yl)cyclopropyl)amino)cyclohexyl)acetamide hydrochloride]
> 100	NC1CCC(N[C@H]2C[C@@H]2c2cccnc2)CC1 (relative stereo) [Example 7, N1-((trans)-2-(pyridin-3-yl)cyclopropyl)cyclohexane-1,4-diamine hydrochloride]
~100	Nc1ccc(S(=O)(=O)Nc2cccc(-c3ccc([C@H]4C[C@@H]4NC4CCC(N)CC4)cc3)c2)cn1 (some centres unmarked) [Example 51]
> 100	NC1CCC(N[C@H]2C[C@@H]2c2ccc(-c3ccn[nH]3)cc2)CC1 (relative stereo) [Example 43, N1-((trans)-2-(4-(1H-pyrazol-5-yl)phenyl)cyclopropyl)cyclohexane-1,4-diamine]

Reference: patent US9469597B2 (dated 2016)
